Patent US9937179B2, “Combined treatment for cancer resistant to an epidermal growth factor receptor kinase inhibitor” (Pre Clinical Oncology Services Ltd., priority 2014, dated 2018)

Tested on: HCC827-ER1 (Erlotinib resistant variant of HCC827 NSCLC adenocarcinoma cell line)
Conditions: HCC827-ER1, in vitro

`COc1cc2ncnc(Nc3ccc(F)c(Cl)c3)c2cc1OCCCN1CCOCC1` [Gefitinib, N-(3-chloro-4-fluoro-phenyl)-7-methoxy-6-(3-morpholin-4-ylpropoxy)quinazolin-4-amine] was tested, and the “cross-resistance of HCC827-ER1 with the alternate EGFR-TKI” value was “cross-resistance”.
